Bioavailability and CL data for two molecules are collected here from ChEMBL document CHEMBL5252531, “2015 Philip S. Portoghese Medicinal Chemistry Lectureship. Curing Hepatitis C Virus Infection with Direct-Acting Antiviral Agents: The Arc of a Medicinal Chemistry Triumph” (J Med Chem, 2016).

A short description of one data set: in vivo. Conditions: male, beagle, dog, po, 3 mg/kg.
Data set [1] in a line: Clearance in Wistar rat at 10 mg/kg, iv measured after 4 hrs. Format: ADME, organism-based. Conditions: in vivo.
A short description of data set [2]: Clearance in Wistar rat at 10 mg/kg, po measured after 4 hrs. The format is ADME, organism-based. Particulars: in vivo.

Regarding `C=C[C@@H]1C[C@]1(NC(=O)[C@@H]1C[C@@H](Oc2ncc(OC)c3ccc(Cl)cc23)CN1C(=O)[C@@H](NC(=O)OC(C)(C)C)C(C)(C)C)C(=O)NS(=O)(=O)C1CC1`, in the data set “in vivo”, the bioavailability (commonly the share of a dose that reaches the circulation, judged against a reference dose that is usually intravenous) is 61%.

As to `COc1ccc2c(c1)C1CC1(C(=O)N1C3CCC1CN(C)C3)Cn1c-2c(C2CCCCC2)c2ccc(C(=O)NS(=O)(=O)N(C)C)cc21` (racemic), the CL came out at 20.6 mg/mL/kg in data set [1] and 7.2 mg/mL/kg in data set [2].
